According to PubChem BioAssay (Tox21):
Values joined by “and” are separate entries in the source; they are usually repeats but may differ in a detail not shown here. Equal entries are not always repeated. The list shows a part of the results, in another mix than the full data. Inconclusive results are not listed. Active and inactive are the calls of the source. Calls follow the shape of the dose curve; as a rule, active = well fitted activation curve with a large enough effect in the signal ratio in the repeat runs (not every such curve was filed as active); inconclusive = weak or mixed curves, or effect the other way; inactive = no such curve, though single readings can be large or run the other way; the % refers to the signal ratio.

Sequences of proteins named here, by UniProt entry; tags and fusion partners are left off. A change or cut given only in a name is not applied to a line headed by its entry.
UniProt P37231: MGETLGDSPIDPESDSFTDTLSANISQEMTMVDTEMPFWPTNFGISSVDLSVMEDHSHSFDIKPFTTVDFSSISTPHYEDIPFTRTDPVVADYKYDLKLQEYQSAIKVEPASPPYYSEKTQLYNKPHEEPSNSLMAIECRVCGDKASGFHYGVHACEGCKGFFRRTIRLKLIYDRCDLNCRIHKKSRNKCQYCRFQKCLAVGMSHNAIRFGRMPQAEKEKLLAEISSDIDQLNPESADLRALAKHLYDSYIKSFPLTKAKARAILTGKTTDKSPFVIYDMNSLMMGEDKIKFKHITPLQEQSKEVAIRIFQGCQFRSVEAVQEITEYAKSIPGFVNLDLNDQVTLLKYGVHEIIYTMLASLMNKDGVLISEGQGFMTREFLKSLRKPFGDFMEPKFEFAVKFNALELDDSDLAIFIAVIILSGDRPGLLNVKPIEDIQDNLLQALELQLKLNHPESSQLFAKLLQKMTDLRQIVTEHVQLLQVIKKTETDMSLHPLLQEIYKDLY

target: Peroxisome proliferator-activated receptor gamma (Homo sapiens) (UniProt P37231); assay: qHTS assay to identify small molecule agonists of the peroxisome proliferator-activated receptor gamma (PPARg) signaling pathway (AID 743094); conditions: HEK293H PPARg-UAS-bla, beta-lactamase FRET ratio, 17 h; at 57 µM (top of the series) unless noted
Excerpt: U.S. Tox21 Program National Center for Advancing Translational Sciences [NCATS] NIH Chemical Genomics Center [NCGC] U.S. Environmental Protection Agency [EPA] National Institutes of Environmental Health Sciences [NIEHS] National Toxicology Program [NTP] U.S. Food and Drug Administration [FDA] Tox21 Assay Overview: The peroxisome proliferator-activated receptors (PPARs) are lipid-activated transcription factors of the nuclear receptor superfamily with three distinct subtypes namely PPAR alpha, PPAR delta (also called PPAR beta) and PPAR gamma (PPARg). All these subtypes heterodimerize with Retinoid X receptor (RXR) and these heterodimers regulate transcription of various genes. PPAR-gamma receptor (glitazone receptor) is involved in the regulation of glucose and lipid metabolism. To identify the compounds that activate PPAR-gamma signaling, GeneBLAzer PPAR gamma UAS-bla HEK293H cell line (Invitrogen, Carlsbad, CA, USA) containing a beta-lactamase reporter gene under control of the control of an upstream activator sequence (UAS) stably integrated into HEK293H cells was used to screen Tox21 compound library.
Tox21 Assay Protocol Summary: PPARg-bla cells were dispensed at 3000 cells/6uL/well in 1536-well black wall/clear bottom plates using a Multidrop Combi (Thermo Fisher Scientific, Waltham, MA) dispenser. After the assay plates were incubated at 37C and 5% CO2 for 5 h, 23 nL of compounds dissolved in DMSO, positive controls or DMSO only was transferred to the assay plate by a Pintool station (Kalypsys, San Diego, CA). The assay plates were incubated at 37C for 17 h. After 1 uL of LiveBLAzerTM B/G FRET substrate was added using a Bioraptr Flying Reagent Dispenser (FRD) workstation (Beckman Coulter, Indianapolis, IN, USA), the plates were incubated at room temperature for 1 h, and fluorescence intensity was measured by an Envision plate reader (PerkinElmer, Shelton, CT).
% is scaled to controls: 0 for no effect and ±100 for the full control effect.

Row | Compound | activation
1 | CCNC(C)Cc1ccc2c(c1)OCO2 (stereo not drawn) | inactive: -12.1% [at 78.9 µM]
2 | CCOP(=S)(CC)Sc1ccccc1 (stereo not drawn) | inactive: -0.613%
3 | CCCCO[P+](=O)OCCCC | inactive: 1.44% and inactive: 1.3%
4 | COP(=S)(Cl)OC | inactive: 10.1% [at 78.9 µM]
5 | O=P(Cl)(Cl)c1ccccc1 | inactive: 2.69%
6 | O=P(Cl)(Oc1ccccc1)Oc1ccccc1 | inactive: -2.08%
7 | CCOC(=O)Cl | inactive: 2.4%
8 | Cc1cc([N+](=O)[O-])c(O)c([N+](=O)[O-])c1 | inactive: -7.45% [at 78.9 µM]
9 | CN(C(=O)Cc1ccc(Cl)c(Cl)c1)[C@H]1CC[C@@]2(CCCO2)C[C@@H]1N1CCCC1 | inactive: -2.33%
10 | CCCCC(CC)CO[P+](=O)OCC(CC)CCCC (stereo not drawn) | inactive: -3.38%
11 | CN(C(=O)Cc1cccc2occc12)[C@H]1CC[C@@]2(CCCO2)C[C@@H]1N1CCCC1 | inactive: -11%
12 | O=C(OC1CN2CCC1CC2)c1ccccc1 (stereo not drawn) | inactive: -6.95%
13 | O=[P+](Oc1ccccc1)Oc1ccccc1 | inactive: -3.42%
14 | O=[p+]1oc2ccccc2c2ccccc21 (stereo not drawn) | inactive: 5.25%
15 | COC(=O)Cl | inactive: 3.81%
16 | CC(C)CCCCCCCOP(OCCCCCCCC(C)C)Oc1ccccc1 | inactive: -8.88%
17 | CN(C(=O)Cc1ccccc1)[C@H]1CC[C@@]2(CCCO2)C[C@@H]1N1CCCC1 | inactive: 0.001%
18 | ClP(Cl)c1ccccc1 | inactive: 2.74%
